{"source": "patent US9452154B2", "about": "“Methods for treating HCV” (Gilead Sciences, Inc., priority 2010, dated 2016)", "key": {"GT-1b Huh-lunet cells": {"test_system": "GT-1b Huh-lunet cells", "experiment": "Biological Example 4: antiviral combination studies with Compound 5 (MacSynergy II)", "assay_type": "cell-based, HCV", "details": "in combination with Compound 5, 1b replicon cells"}, "[1]": {"test_system": "Genotype 1b replicon cells", "experiment": "Biological Example 6: compound combination replicon cure assay", "details": "6 days; Compound 6 at 4 pM, Compound 4 at 1000 nM, Compound 1 at 10 nM, Compound 3 at 26.25 nM"}, "[2]": {"test_system": "HCV genotype 1a replicon cells (Huh7-lunet)", "experiment": "Biological Example 7: compound combination HCV viral load drop assay / replicon cure"}}, "data": [{"smiles": "Fc1ccccc1-c1nc2ccn(Cc3ccc(-c4ccc(C(F)(F)F)cc4C(F)(F)F)nn3)cc-2n1", "note": "[Compound 1, 5-((6-(2,4-bis(trifluoromethyl)phenyl)pyridazin-3-yl)methyl)-2-(2-fluorophenyl)-5H-imidazo[4,5-c]pyridine]", "values": [{"measurement": "Interaction", "setting": "GT-1b Huh-lunet cells", "result": "Moderate synergy (Moderate synergy if volumes are >50 and ≦100 nM^2)"}]}, {"smiles": "COC(=O)N[C@H](C(=O)N1CC2(CC2)C[C@H]1c1ncc(-c2ccc3c(c2)C(F)(F)c2cc(-c4ccc5nc([C@@H]6[C@H]7CC[C@H](C7)N6C(=O)[C@@H](NC(=O)OC)C(C)C)[nH]c5c4)ccc2-3)[nH]1)C(C)C", "note": "[Compound 6, (1-{3-[6-(9,9-Difluoro-7-{2-[5-(2-methoxycarbonylamino-3-methyl-butyryl)-5-aza-spiro[2.4]hept-6-yl]-3H-imidazol-4-yl}-9H-fluoren-2-yl)-1H-benzoimidazol-2-yl]-2-aza-bicyclo[2.2.1]heptane-2-carbonyl}-2-methyl-propyl)-carbamic acid methyl ester]", "values": [{"measurement": "Interaction", "setting": "GT-1b Huh-lunet cells", "result": "Minor synergy (Minor synergy if volumes are >25 and <50 nM^2)"}]}, {"smiles": "CC[C@@H]1C[C@]1(NC(=O)[C@@H]1C[C@@H](Oc2cc(-c3csc(NC(C)C)n3)nc3c(Cl)c(OCCN4CCOCC4)ccc23)CC1C(=O)[C@@H](NC(=O)O[C@@H]1C[C@@H]2C[C@@H]2C1)C(C)(C)C)C(=O)O", "note": "(stereo partly shown) [Compound 3]", "values": [{"measurement": "Replicon RNA log drop", "setting": "[1]", "result": "−0.9", "unit": "log"}]}, {"smiles": "CC1=CC[C@H](C(=O)N(c2cc(C#CC(C)(C)C)sc2C(=O)O)[C@H]2CC[C@](O)(CO[C@H]3CCOC3)CC2)CC1", "note": "[Compound 5, 5-(3,3-dimethylbut-1-yn-1-yl)-3-[(cis-4-hydroxy-4-{[(3S)-tetrahydrofuran-3-yloxy]methyl}cyclohexyl){[(1R)-4-methylcyclohex-3-en-1-yl]carbonyl}amino]thiophene-2-carboxylic acid]", "values": [{"measurement": "Maximum Replicon RNA log10 drop", "setting": "[2]; 10 EC50", "result": "−2.80", "unit": "log10"}, {"measurement": "Uncured Colony Number", "setting": "[2]; 10 EC50", "result": 1581}, {"measurement": "Maximum Replicon RNA log10 drop", "setting": "[2]; 100 EC50", "result": "−4.08", "unit": "log10"}, {"measurement": "Uncured Colony Number", "setting": "[2]; 100 EC50", "result": 534}]}]}
